biological target: Vascular endothelial growth factor receptor 2 (Rattus norvegicus, UniProt O08775); assay: Kinase Inhibition Assay; conditions: pH 8; 30 °C
Procedure: The enzyme was assayed with a biotinylated peptide substrate and test compounds in the presence of 5 uM ATP/[gamma-33P]ATP in a streptavidin coated FlashPlate (Perkin-Elmer, Boston, MA). […] Linear regression analysis of the percent of inhibition by the test compound was used to calculate IC50 values.

By UniProt entry, the sequences of proteins in these tests, tags left out.
UniProt O08775, whole entry: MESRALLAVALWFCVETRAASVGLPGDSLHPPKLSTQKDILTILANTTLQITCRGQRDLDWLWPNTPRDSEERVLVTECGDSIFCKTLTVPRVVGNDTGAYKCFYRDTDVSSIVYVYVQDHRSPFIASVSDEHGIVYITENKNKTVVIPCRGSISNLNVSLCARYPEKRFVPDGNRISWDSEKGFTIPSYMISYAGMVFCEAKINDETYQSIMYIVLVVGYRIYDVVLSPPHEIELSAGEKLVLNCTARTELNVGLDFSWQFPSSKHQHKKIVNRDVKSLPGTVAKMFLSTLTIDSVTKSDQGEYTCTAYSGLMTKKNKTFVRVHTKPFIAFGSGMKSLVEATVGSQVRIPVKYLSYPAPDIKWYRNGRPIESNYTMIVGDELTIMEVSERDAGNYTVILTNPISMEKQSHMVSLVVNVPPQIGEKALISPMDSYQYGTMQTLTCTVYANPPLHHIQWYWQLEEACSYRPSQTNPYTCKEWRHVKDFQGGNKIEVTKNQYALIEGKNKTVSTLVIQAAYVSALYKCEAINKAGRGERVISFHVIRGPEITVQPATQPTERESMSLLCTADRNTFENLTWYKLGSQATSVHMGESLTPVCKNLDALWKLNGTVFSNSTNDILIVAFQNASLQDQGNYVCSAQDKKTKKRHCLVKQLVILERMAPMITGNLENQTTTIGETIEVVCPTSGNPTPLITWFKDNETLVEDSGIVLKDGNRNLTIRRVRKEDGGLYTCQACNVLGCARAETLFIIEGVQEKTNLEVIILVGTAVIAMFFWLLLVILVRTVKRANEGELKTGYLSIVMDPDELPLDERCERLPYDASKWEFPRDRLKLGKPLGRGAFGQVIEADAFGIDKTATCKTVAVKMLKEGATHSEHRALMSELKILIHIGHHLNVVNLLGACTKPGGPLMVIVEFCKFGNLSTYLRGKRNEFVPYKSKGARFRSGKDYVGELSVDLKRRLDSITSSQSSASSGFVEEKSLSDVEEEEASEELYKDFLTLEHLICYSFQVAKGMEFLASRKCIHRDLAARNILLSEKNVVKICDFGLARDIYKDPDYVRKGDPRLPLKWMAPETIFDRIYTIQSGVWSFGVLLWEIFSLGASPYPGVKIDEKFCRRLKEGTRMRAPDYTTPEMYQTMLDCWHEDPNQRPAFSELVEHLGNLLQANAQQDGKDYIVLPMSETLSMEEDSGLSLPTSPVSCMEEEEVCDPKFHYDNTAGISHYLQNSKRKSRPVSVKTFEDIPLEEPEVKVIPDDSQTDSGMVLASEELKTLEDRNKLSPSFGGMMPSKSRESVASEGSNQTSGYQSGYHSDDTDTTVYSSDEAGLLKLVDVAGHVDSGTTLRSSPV

Row | IC50 [nM] | Compound
1 | 187 | Cc1cc2c(F)c(Oc3ncnc(N)c3/C=N/OCCN(C)C)ccc2[nH]1 [5-[(1E)-{[2-(dimethylamino)ethoxy]imino}methyl]-6-[(4-fluoro-2-methyl-1H-indol-5-yl)oxy]pyrimidin-4-amine]
2 | 101 | Cc1cc2c(F)c(Oc3ncnc(N)c3/C=N/OCCCN(C)C)ccc2[nH]1 [5-[(1E)-{[3-(dimethylamino)propoxy]imino}methyl]-6-[(4-fluoro-2-methyl-1H-indol-5-yl)oxy]pyrimidin-4-amine]
3 | 52 | C=CCO/N=C/c1c(N)ncnc1Oc1ccc2[nH]c(C)cc2c1F [6-[(4-fluoro-2-methyl-1H-indol-5-yl)oxy]-5-[(1E)-[(prop-2-en-1-yloxy)imino]methyl]pyrimidin-4-amine]
4 | 52 | C#CCO/N=C/c1c(N)ncnc1Oc1ccc2[nH]c(C)cc2c1F [6-[(4-fluoro-2-methyl-1H-indol-5-yl)oxy]-5-[(1E)-[(prop-2-yn-1-yloxy)imino]methyl]pyrimidin-4-amine]

Source: BindingDB's records for doi:10.1016/j.bmcl.2006.08.107 (Johnson & Johnson Pharmaceutical, 2006)
